Results on 2 molecules are retold here after PubChem BioAssay AID633 (Emory University Molecular Libraries Screening Center, 2007).

Sequences of proteins named here, by UniProt entry; tags and fusion partners are left off.
UniProt Q92731, whole entry: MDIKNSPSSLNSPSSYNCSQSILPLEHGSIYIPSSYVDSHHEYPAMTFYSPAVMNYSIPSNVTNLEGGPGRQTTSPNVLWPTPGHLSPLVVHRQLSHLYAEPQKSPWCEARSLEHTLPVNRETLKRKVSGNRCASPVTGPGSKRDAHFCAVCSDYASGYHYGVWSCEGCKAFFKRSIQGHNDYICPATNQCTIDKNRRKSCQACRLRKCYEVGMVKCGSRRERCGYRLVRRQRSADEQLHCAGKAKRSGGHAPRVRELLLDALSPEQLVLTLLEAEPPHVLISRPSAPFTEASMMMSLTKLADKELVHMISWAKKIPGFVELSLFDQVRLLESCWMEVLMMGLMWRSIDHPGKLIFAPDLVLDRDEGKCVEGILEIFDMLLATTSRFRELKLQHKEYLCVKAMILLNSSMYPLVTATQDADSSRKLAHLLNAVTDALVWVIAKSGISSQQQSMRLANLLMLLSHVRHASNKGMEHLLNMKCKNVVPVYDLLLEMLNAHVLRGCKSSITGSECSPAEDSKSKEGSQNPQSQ

Only a part is listed here, and it is no random draw. Some of these compounds have results that are not shown, active ones among them. Activity calls are given as the source filed them.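 Rule for the calls: active = compounds whose percent inhibition of the receptor-coactivator binding signal exceeds about 50% in the single-dose screen (limit read from the data); inactive = the rest.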

The test concerns the target Estrogen receptor beta (Homo sapiens) (UniProt Q92731). The test is described as follows: blockers of coactivator peptide binding to ERβ – biochemical, TR-FRET, ERβ LBD, SRC-1 peptide, primary screen (AID 633).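 Note: 0% = receptor plus peptide wells without compound and 100% = peptide-only wells.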 The settings on record: TR-FRET ER-beta LBD / SRC1-Cy5 peptide binding; at 25.6 µM; hits give high values.
Consider `CN(C)c1cccc(C(=O)NCC2(N(C)C)CCCCC2)c1`, for which the inhibition is inactive: -7.76%.

With `O=C(OC1CN2CCC1CC2)C(CO)(c1ccccc1)c1ccccc1` (configuration not stated), the inhibition is inactive: -11.9%.
